Reference: PubChem BioAssay AID1717 (Vanderbilt High Throughput Screening Facility, 2009)
Only a part is listed here, and it is no random draw. Records with an inconclusive call do not appear. Activity calls are given as the source filed them.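 Rule for the calls: active = thallium flux slope beyond 3 SD from same-plate DMSO control mean in most replicates, usually higher, sometimes lower; inconclusive = repeat tests gave conflicting results; inactive = no significant difference from controls in most replicates.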

Protein sequences, listed by entry. Tags and fused reporters are not part of them.
UniProt Q9H2X9, whole entry: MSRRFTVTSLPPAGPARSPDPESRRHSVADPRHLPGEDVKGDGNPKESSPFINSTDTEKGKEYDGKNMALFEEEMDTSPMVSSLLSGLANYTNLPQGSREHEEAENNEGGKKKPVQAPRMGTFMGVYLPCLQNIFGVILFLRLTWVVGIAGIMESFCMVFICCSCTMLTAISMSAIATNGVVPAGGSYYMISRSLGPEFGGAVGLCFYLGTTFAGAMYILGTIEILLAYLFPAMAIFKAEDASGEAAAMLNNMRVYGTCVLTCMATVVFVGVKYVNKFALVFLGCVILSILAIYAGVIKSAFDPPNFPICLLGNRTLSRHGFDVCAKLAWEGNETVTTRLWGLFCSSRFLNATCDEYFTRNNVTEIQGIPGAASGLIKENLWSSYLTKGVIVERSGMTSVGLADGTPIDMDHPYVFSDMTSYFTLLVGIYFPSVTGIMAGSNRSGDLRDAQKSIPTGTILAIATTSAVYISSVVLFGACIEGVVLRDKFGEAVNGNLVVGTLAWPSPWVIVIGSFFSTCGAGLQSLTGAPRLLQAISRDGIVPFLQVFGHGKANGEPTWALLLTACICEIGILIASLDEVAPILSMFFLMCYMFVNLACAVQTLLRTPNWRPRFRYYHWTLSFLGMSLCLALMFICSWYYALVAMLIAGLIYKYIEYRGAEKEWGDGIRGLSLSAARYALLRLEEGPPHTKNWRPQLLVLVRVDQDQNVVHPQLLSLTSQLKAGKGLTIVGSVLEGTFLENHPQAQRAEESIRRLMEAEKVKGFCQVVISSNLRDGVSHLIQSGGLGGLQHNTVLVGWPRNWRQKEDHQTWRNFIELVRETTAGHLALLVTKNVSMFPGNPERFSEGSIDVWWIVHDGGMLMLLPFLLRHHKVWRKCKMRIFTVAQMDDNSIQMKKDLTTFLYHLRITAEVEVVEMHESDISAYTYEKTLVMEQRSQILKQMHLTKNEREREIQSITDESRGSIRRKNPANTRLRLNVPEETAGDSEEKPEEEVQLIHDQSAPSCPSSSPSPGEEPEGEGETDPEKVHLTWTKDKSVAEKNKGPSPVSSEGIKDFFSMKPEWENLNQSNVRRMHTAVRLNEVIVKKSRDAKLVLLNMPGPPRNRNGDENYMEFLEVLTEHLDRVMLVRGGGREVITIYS

target: Solute carrier family 12 member 5 (Homo sapiens) (UniProt Q9H2X9); test: KCC2 inhibitors and activators, ouabain retest, confirmation, HEK-KCC2 cells (AID 1717); settings: HEK293-KCC2, thallium flux FluoZin2 fluorescence, at 10 µM, bidirectional: low = inhibitor, high = activator;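 note: slope of initial-normalized fluorescence between seconds 10 and 20 after thallium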

| Structure (SMILES) | raw Tl+ flux slope (below DMSO = inhibition, above = activation) |
| --- | --- |
| CP(=O)(Nc1ccccc1)Oc1ccc(F)cc1 (stereo unspecified) | inactive: 0.0642 |
